Test results: ChEMBL document CHEMBL5260839 (J Med Chem, 2019)

The chains behind the UniProt entries cited, without tags or fusion partners. Where a name states a change or a piece, a line headed by the entry shows the natural chain unless it says otherwise.
UniProt Q00987, whole entry, looked up: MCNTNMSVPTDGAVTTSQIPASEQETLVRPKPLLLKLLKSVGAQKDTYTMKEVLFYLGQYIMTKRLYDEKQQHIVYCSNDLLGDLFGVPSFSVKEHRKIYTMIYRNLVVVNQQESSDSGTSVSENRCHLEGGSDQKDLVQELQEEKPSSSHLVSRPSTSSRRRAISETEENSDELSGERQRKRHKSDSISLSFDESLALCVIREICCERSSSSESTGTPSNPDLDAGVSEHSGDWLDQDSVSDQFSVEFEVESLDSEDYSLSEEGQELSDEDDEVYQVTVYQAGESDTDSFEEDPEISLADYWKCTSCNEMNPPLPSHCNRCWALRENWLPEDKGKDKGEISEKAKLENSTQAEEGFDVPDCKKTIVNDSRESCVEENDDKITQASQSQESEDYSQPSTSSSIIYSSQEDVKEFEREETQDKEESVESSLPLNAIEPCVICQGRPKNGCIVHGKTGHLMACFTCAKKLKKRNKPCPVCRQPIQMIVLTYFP
UniProt Q96SW2: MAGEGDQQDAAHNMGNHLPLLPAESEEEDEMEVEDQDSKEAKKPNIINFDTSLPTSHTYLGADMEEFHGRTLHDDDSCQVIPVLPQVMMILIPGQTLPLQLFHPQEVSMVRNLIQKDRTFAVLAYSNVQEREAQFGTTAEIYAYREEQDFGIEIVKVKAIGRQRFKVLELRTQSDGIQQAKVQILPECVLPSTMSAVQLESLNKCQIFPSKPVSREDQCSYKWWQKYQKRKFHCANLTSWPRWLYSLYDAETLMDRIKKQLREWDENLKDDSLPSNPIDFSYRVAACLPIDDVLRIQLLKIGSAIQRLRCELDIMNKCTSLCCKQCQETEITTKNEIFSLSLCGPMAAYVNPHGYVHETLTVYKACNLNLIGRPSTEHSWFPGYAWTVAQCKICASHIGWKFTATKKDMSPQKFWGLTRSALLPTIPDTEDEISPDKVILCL

Legend:
[1] = target: T1, Protein cereblon/E3 ubiquitin-protein ligase Mdm2 (Homo sapiens) (UniProt Q00987+Q96SW2); assay: PROTAC activity at CRBN/MDM2 in human RS4-11 cells harbouring wildtype p53 assessed as decrease in MDM2 protein level at 3 nM incubated for 2 hrs by Western blot analysis; format: cell-based
[2] = target: T1, Protein cereblon/E3 ubiquitin-protein ligase Mdm2 (Homo sapiens); assay: PROTAC activity at CRBN/MDM2 in human RS4-11 cells harbouring wildtype p53 assessed as increase in p53 accumulation at 10 nM incubated for 2 hrs by Western blot analysis; format: cell-based
[3] = target: T1, Protein cereblon/E3 ubiquitin-protein ligase Mdm2 (Homo sapiens); assay: PROTAC activity at CRBN/MDM2 in human RS4-11 cells harbouring wildtype p53 assessed as increase in p53 accumulation at 30 nM incubated for 2 hrs by Western blot analysis; format: cell-based
[4] = target: T1, Protein cereblon/E3 ubiquitin-protein ligase Mdm2 (Homo sapiens); assay: PROTAC activity at CRBN/MDM2 in human RS4-11 cells harbouring wildtype p53 assessed as decrease in MDM2 protein level at 1 nM incubated for 2 hrs by Western blot analysis; format: cell-based
[5] = target: T1, Protein cereblon/E3 ubiquitin-protein ligase Mdm2 (Homo sapiens); assay: PROTAC activity at CRBN/MDM2 in human RS4-11 cells harbouring wildtype p53 assessed as increase in p53 accumulation at 1 nM incubated for 2 hrs by Western blot analysis; format: cell-based
[6] = target: T1, Protein cereblon/E3 ubiquitin-protein ligase Mdm2 (Homo sapiens); assay: PROTAC activity at CRBN/MDM2 in human MV4-11 cells assessed as fold reduction in MDM2 protein at 1 nM incubated for 2 hrs by Western blot analysis; format: cell-based
[7] = target: T1, Protein cereblon/E3 ubiquitin-protein ligase Mdm2 (Homo sapiens); assay: PROTAC activity at CRBN/MDM2 in human MV4-11 cells assessed as fold reduction in MDM2 protein at 10 nM incubated for 2 hrs by Western blot analysis; format: cell-based
[8] = target: T1, Protein cereblon/E3 ubiquitin-protein ligase Mdm2 (Homo sapiens); assay: PROTAC activity at CRBN/MDM2 in human MV4-11 cells assessed as fold increase in p53 accumulation at 1 nM incubated for 2 hrs by Western blot analysis; format: cell-based
[9] = target: T1, Protein cereblon/E3 ubiquitin-protein ligase Mdm2 (Homo sapiens); assay: PROTAC activity at CRBN/MDM2 in human MV4-11 cells assessed as fold increase in p53 accumulation at 3 nM incubated for 2 hrs by Western blot analysis; format: cell-based
[10] = target: T1, Protein cereblon/E3 ubiquitin-protein ligase Mdm2 (Homo sapiens); assay: PROTAC activity at CRBN/MDM2 in human MV4-11 cells assessed as fold increase in p53 accumulation at 10 nM incubated for 2 hrs by Western blot analysis; format: cell-based
[11] = target: T1, Protein cereblon/E3 ubiquitin-protein ligase Mdm2 (Homo sapiens); assay: PROTAC activity at CRBN/MDM2 in human RS4-11 cells harbouring wildtype p53 assessed as fold change in MDM2 level at 0.03 uM incubated for 2 hrs in the presence of lenalidomide by Western blot analysis; format: cell-based
[12] = target: T1, Protein cereblon/E3 ubiquitin-protein ligase Mdm2 (Homo sapiens); assay: PROTAC activity at CRBN/MDM2 in human RS4-11 cells harbouring wildtype p53 assessed as fold decrease in MDM2 protein level at 30 nM preincubated with PR-171 for 4 hrs followed by compound treatment and measured after 2 hrs by Western blot analysis; format: cell-based
[13] = target: T1, Protein cereblon/E3 ubiquitin-protein ligase Mdm2 (Homo sapiens); assay: PROTAC activity at CRBN/MDM2 in human RS4-11 cells harbouring wildtype p53 assessed as fold decrease in MDM2 protein level at 30 nM preincubated with MLN4924 for 4 hrs followed by compound treatment and measured after 2 hrs by Western blot analysis; format: cell-based
[14] = target: T1, Protein cereblon/E3 ubiquitin-protein ligase Mdm2 (Homo sapiens); assay: PROTAC activity at CRBN/MDM2 in human RS4-11 cells harbouring wildtype p53 assessed as fold change in p53 accumulation at 30 nM preincubated with MG-132 for 4 hrs followed by compound treatment and measured after 2 hrs by Western blot analysis; format: cell-based
[15] = target: T1, Protein cereblon/E3 ubiquitin-protein ligase Mdm2 (Homo sapiens); assay: PROTAC activity at CRBN/MDM2 in human RS4-11 cells harbouring wildtype p53 assessed as fold change in p53 accumulation at 30 nM preincubated with PR-171 for 4 hrs followed by compound treatment and measured after 2 hrs by Western blot analysis; format: cell-based
[16] = target: T1, Protein cereblon/E3 ubiquitin-protein ligase Mdm2 (Homo sapiens); assay: PROTAC activity at CRBN/MDM2 in human RS4-11 cells harbouring wildtype p53 assessed as fold change in p53 accumulation by Western blot analysis relative to MI-1061; format: cell-based
[17] = target: T1, Protein cereblon/E3 ubiquitin-protein ligase Mdm2 (Homo sapiens); assay: PROTAC activity at CRBN/MDM2 in human MV4-11 cells assessed as fold change in p53 accumulation by Western blot analysis relative to MI-1061; format: cell-based
[18] = target: T1, Protein cereblon/E3 ubiquitin-protein ligase Mdm2 (Homo sapiens); assay: PROTAC activity at CRBN/MDM2 in human RS4-11 cells harbouring wildtype p53 assessed as upregulation of p53 mRNA expression by measuring fold change at 0.03 to 0.1 uM incubated for 6 hrs by qRT-PCR analysis relative to MI-1061; format: cell-based; settings: dose 0.03-0.1 µM
[19] = target: T1, Protein cereblon/E3 ubiquitin-protein ligase Mdm2 (Homo sapiens); assay: PROTAC activity at CRBN/MDM2 in human RS4-11 cells harbouring wildtype p53 assessed as upregulation of MDM2 mRNA expression by measuring fold change at 0.03 to 0.1 uM incubated for 6 hrs by qRT-PCR analysis relative to MI-1061; format: cell-based; settings: dose 0.03-0.1 µM
[20] = target: T1, Protein cereblon/E3 ubiquitin-protein ligase Mdm2 (Homo sapiens); assay: PROTAC activity at CRBN/MDM2 in human RS4-11 cells harbouring wildtype p53 assessed as upregulation of p21 mRNA expression by measuring fold change at 0.03 to 0.1 uM incubated for 6 hrs by qRT-PCR analysis relative to MI-1061; format: cell-based; settings: dose 0.03-0.1 µM
[21] = target: T1, Protein cereblon/E3 ubiquitin-protein ligase Mdm2 (Homo sapiens); assay: PROTAC activity at CRBN/MDM2 in human RS4-11 cells harbouring wildtype p53 assessed as upregulation of PUMA mRNA expression by measuring fold change at 0.03 to 0.1 uM incubated for 6 hrs by qRT-PCR analysis relative to MI-1061; format: cell-based; settings: dose 0.03-0.1 µM
[22] = target: T1, Protein cereblon/E3 ubiquitin-protein ligase Mdm2 (Homo sapiens); assay: In vivo PROTAC activity at CRBN/MDM2 in human RS4-11 cells xenografted in mouse assessed as fold change in MDM2 protein level in tumor at 25 mg/kg, iv administered as single dose and measured after 3 hrs by Western blot analysis; format: functional, organism-based
[23] = target: T1, Protein cereblon/E3 ubiquitin-protein ligase Mdm2 (Homo sapiens); assay: In vivo PROTAC activity at CRBN/MDM2 in human RS4-11 cells xenografted in mouse assessed as fold change in MDM2 protein level in tumor at 25 mg/kg, iv administered as single dose and measured after 24 hrs by Western blot analysis; format: functional, organism-based
[24] = target: T1, Protein cereblon/E3 ubiquitin-protein ligase Mdm2 (Homo sapiens); assay: In vivo PROTAC activity at CRBN/MDM2 in human RS4-11 cells xenografted in mouse assessed as fold change in p21 protein level in tumor at 25 mg/kg, iv administered as single dose and measured after 6 hrs by Western blot analysis; format: functional, organism-based
[25] = target: T1, Protein cereblon/E3 ubiquitin-protein ligase Mdm2 (Homo sapiens); assay: In vivo PROTAC activity at CRBN/MDM2 in human RS4-11 cells xenografted in mouse assessed as fold change in p21 protein level in tumor at 25 mg/kg, iv administered as single dose and measured after 24 hrs by Western blot analysis; format: functional, organism-based
[26] = target: T1, Protein cereblon/E3 ubiquitin-protein ligase Mdm2 (Homo sapiens); assay: In vivo PROTAC activity at CRBN/MDM2 in human RS4-11 cells xenografted in mouse assessed as fold change in cleaved PARP protein level in tumor at 25 mg/kg, iv administered as single dose and measured after 3 hrs by Western blot analysis; format: functional, organism-based
[27] = target: T1, Protein cereblon/E3 ubiquitin-protein ligase Mdm2 (Homo sapiens); assay: In vivo PROTAC activity at CRBN/MDM2 in human RS4-11 cells xenografted in mouse assessed as fold change in cleaved PARP protein level in tumor at 25 mg/kg, iv administered as single dose and measured after 6 hrs by Western blot analysis; format: functional, organism-based
[28] = target: T1, Protein cereblon/E3 ubiquitin-protein ligase Mdm2 (Homo sapiens); assay: In vivo PROTAC activity at CRBN/MDM2 in human RS4-11 cells xenografted in mouse assessed as fold change in cleaved PARP protein level in tumor at 25 mg/kg, iv administered as single dose and measured after 24 hrs by Western blot analysis; format: functional, organism-based

O=C1CCC(N2Cc3c(C#CCCCNC(=O)c4ccc(NC(=O)[C@@H]5NC6(CCCCC6)[C@@]6(C(=O)Nc7cc(Cl)ccc76)[C@H]5c5cccc(Cl)c5F)cc4)cccc3C2=O)C(=O)N1 (stereo partly drawn)
fold change (FC) [1]: 0.05
fold change (FC) [2]: 2.7
fold change (FC) [3]: 8.4
fold change (FC) [4]: 0.2
fold change (FC) [5]: 1.4
fold change (FC) [6]: 0.2
fold change (FC) [7]: 0.3
fold change (FC) [8]: 2
fold change (FC) [9]: 3.6
fold change (FC) [10]: 7.7
fold change (FC) [11]: 1
fold change (FC) [12]: 3.5
fold change (FC) [13]: 3.1
fold change (FC) [14]: 7.2
fold change (FC) [15]: 8.2
fold change (FC) [16]: > 10
Ratio IC50 [17]: > 10
fold change (FC) [18]: > 10
fold change (FC) [19]: > 10
fold change (FC) [20]: > 10
fold change (FC) [21]: > 10
fold change (FC) [22]: 0.4
fold change (FC) [23]: 0.2
fold change (FC) [24]: 1.6
fold change (FC) [25]: 2.4
fold change (FC) [26]: 5.9
fold change (FC) [27]: 12.4
fold change (FC) [28]: 47.4
